Assay results as given in patent publication US20160378909A1, “PROCESS FOR IDENTIFYING CULTURE CONDITIONS FOR A CELL OR ORGANISM” (GLAXOSMITHKLINE BIOLOGICALS SA, priority 2013, published 2016).
Where two headings read alike, the source gives them in different places.

Tested on: Bordetella pertussis
Experiment: microbe, parasite or virus in culture
Format: cell-based
Method: Cells were harvested by centrifugation, washed twice with NaCl 0.9% (w/v), and resuspended in fresh medium (de novo minimal CDM; see composition in Table 1) at a theoretical OD650 nm of 0.5, as calculated from the OD650 nm of the culture before harvest. 20 μl of this cell suspension were used to inoculate each well of a 96-well microtiter plate filled with 180 μl of de novo minimal CDM. Only the inner wells of the plate were used for cultures, in order to minimize evaporation, and two controls were included, in which the supplement solution was replaced with water.
The plate was then incubated for 7 days at 35° C. in a Biotek Synergy H1 reader with constant shaking, and growth was automatically monitored every 10 minutes as OD650 nm.
The relative growth yield and growth rate for each supplement was then averaged over the three independent repeats, and the standard deviation was calculated.

With O=C([O-])CCC(=O)C(=O)[O-].[Na+].[Na+] [Disodium 2-ketoglutarate] the activity at 2000 µM (168 h, read-out: Relative yield Average, 2 mM in medium, max OD650 nm relative to water controls) was over 105%, the activity at 2000 µM (read-out: Relative growth rate Average, 2 mM in medium, first generation, relative to water controls) was 95 to 105% and the activity at 20000 µM (read-out: Relative growth rate Average, 20 mM in medium, first generation, relative to water controls) was 95 to 105%.
